{"source": "patent US9993454B2", "about": "“Solid nanoparticle formulation of water insoluble pharmaceutical substances with reduced Ostwald ripening” (Luminus Biosciences, Inc., priority 2006, dated 2018)", "test": "Particle size by photon correlation spectroscopy (Malvern Zetasizer)", "assay_type": "physicochemical", "method": "The particle size of the suspension was determined by photon correlation spectroscopy with a Malvern Zetasizer. 2.5 gms of the cryoprotectant trehalose dihydrate (Sigma-Aldrich Co, USA) was dissolved in 10 mL of sterile Type I water and the solution was added to the suspension so that the concentration of trehalose dihydrate in the suspension was in the range of 4-9% by weight. The suspension was sterile-filtered through a 0.22 μm filter (Nalgene, USA). The particle size of the suspension was between 30 and 220 nm. The suspension was frozen below −40° C. and lyophilized. The lyophilized cake was reconstituted prior to further use. One aliquot of the reconstituted solution was stored at 25° C. and the other was stored at 2-6° C. The particle size of the two aliquots were monitored at 24° C. and over a period of eight hours. The particles in both the samples begin to change after 1-2 hours and started precipitating after 4 hours due to Ostwald ripening (FIG. 6). The formulation containing the above composition was designated as unstable due to Ostwald ripening.\n(§1) The particle size of the suspension was determined by photon correlation spectroscopy with a Malvern Zetasizer. 2.5 gms of the cryoprotectant trehalose dihydrate (Sigma-Aldrich Co, USA) was dissolved in 10 mL of sterile Type I water and the solution was added to the suspension so that the concentration of trehalose dihydrate in the suspension was in the range of 4-9% by weight. The suspension was sterile-filtered through a 0.22 μm filter (Nalgene, USA). The particle size of the suspension was between 30 and 220 nm. The suspension was frozen below −40° C. and lyophilized. The lyophilized cake was reconstituted prior to further use. One aliquote of the reconstituted solution was stored at 25° C. and the other was stored at 2-6° C. The particle size of the two aliquots were monitored at 24° C. over a period of 8 days (FIG. 7). […] The formulation containing the above composition was designated as stable due to Ostwald ripening.\nas §1, with “use” for “use.”, “days.” for “days (FIG. 7).”\nThe particle size of the suspension was determined by photon correlation spectroscopy with a Malvern Zetasizer. […] The particle size of the two aliquots were monitored at 24° C. over a period of 8 days (FIG. 8). […]\nThe particle size of the suspension was determined by photon correlation spectroscopy with a Malvern Zetasizer. […]", "key": {"[1]": {"conditions": "4% albumin after homogenization"}, "[2]": {"conditions": "4% albumin after homogenization with chloroform/ethanol and evaporation"}}}
{"substance": "Example 6: 4% human albumin solution homogenized at high pressure with chloroform and ethanol, then evaporated; no drug", "values": [{"measurement": "volume fraction of peak around 5-8 nm", "setting": "[1]", "result": "~99", "unit": "% by volume"}, {"measurement": "volume fraction of peak around 120-140 nm", "setting": "[1]", "result": "less than 1 % by volume"}, {"measurement": "particle size, first peak", "setting": "[2]", "result": "5-8 nm"}, {"measurement": "particle size, second peak", "setting": "[2]", "result": "120-140 nm"}, {"measurement": "albumin molecules aggregated by denaturation", "setting": "homogenization in oil-in-water emulsion", "result": "2-3%"}]}
